The values below come from EP3967307B1, “PIM KINASE INHIBITORS TO AUGMENT THE EFFICACY OF ANTI-CD20 ANTIBODY-BASED THERAPIES FOR USE IN THE TREATMENT OF HEMATOLOGIC MALIGNANCIES” (dated 2026).

Assay [1] deals with CD20. Kind of assay: Surface CD20 expression by flow cytometry (DHL4). The settings on record: DHL4 (DLBCL) cells; 3µM SGI-1776 for 48h or 5µM PIM447 for 72h; vs DMSO. In general terms: In flow cytometry, cells or beads pass a laser one at a time.
The subject of assay [2] is DHL4 cells. Description: Complement-dependent cytotoxicity assay with rituximab (DHL4).
In assay [3] the test system is DHL4 cells. Kind of assay: Antibody-dependent cellular phagocytosis (ADCP) assay. To be noted: DHL4 cells treated 72 hours with SGI-1776 (3µM) or PIM447 (7µM); human blood-derived macrophages, rituximab 1µg/ml, 2h at 37°C; vs DMSO.
In assay [4] the test system is RAJI cells. Description: Complement-dependent cytotoxicity assay with rituximab (RAJI).
In assay [5] the test system is CD20. Kind of assay: Surface CD20 expression by flow cytometry (RAJI). The settings on record: RAJI (BL) cells; 2µM SGI-1776 for 48h or 5µM PIM447 for 72h; vs DMSO.
In assay [6] the test system is MYC. Kind of assay: MYC expression by immunoblotting after PIM inhibitor treatment (DHL4). To be noted: DHL4 (DLBCL) cells, 24 hours, vs DMSO, GAPDH loading control.
Assay [7] has as its system MYC. Kind of assay: MYC expression by immunoblotting after PIM inhibitor treatment (RAJI). To be noted: RAJI (BL) cells, 24 hours, vs DMSO, GAPDH loading control. For orientation: In western blotting, separated proteins are transferred to a membrane and probed.

As to `CN1CCC(CNc2ccc3ncc(-c4cccc(OC(F)(F)F)c4)n3n2)CC1`, the CD20 surface abundance entry in assay [1] and in assay [5] was “elevate surface CD20 expression” throughout. The “% of PI-positive (apoptotic) cells” value is reported as “marked increase in apoptosis” in assay [2] (DHL4 cells pretreated with 3µM SGI-1776 48h or 5µM PIM447 72h, then rituximab 0.1-100 µg/ml 1 hour, 10% human serum, vs DMSO-treated cells exposed to rituximab) and “marked increase in apoptosis” in assay [4] (RAJI cells pretreated with 2µM SGI-1776 48h or 5µM PIM447 72h, then rituximab 0.1-100 µg/ml 1 hour, 10% human serum, vs DMSO-treated cells exposed to rituximab). The “combinatory indexes (CI)” value is “synergistic effects” in assay [2] (DHL4 cells, combination with rituximab, Chou-Talalay, CompuSyn) and “synergistic effects” in assay [4] (RAJI cells, combination with rituximab, Chou-Talalay, CompuSyn). Besides, the “phagocytic index (ingested CFSE-labelled DLBCL cells per 100 macrophages)” value in assay [3] is listed as “potentiated rituximab-dependent phagocytosis”. Further, the MYC expression entry in assay [6] and in assay [7] was “downregulates MYC protein” each time.
